# Results from PubChem BioAssay AID1645887 (National Center for Advancing Translational Sciences (NCATS), 2021).
# Amino acid sequences for entries named in this document (tags omitted).
# UniProt Q8WZA2, whole entry: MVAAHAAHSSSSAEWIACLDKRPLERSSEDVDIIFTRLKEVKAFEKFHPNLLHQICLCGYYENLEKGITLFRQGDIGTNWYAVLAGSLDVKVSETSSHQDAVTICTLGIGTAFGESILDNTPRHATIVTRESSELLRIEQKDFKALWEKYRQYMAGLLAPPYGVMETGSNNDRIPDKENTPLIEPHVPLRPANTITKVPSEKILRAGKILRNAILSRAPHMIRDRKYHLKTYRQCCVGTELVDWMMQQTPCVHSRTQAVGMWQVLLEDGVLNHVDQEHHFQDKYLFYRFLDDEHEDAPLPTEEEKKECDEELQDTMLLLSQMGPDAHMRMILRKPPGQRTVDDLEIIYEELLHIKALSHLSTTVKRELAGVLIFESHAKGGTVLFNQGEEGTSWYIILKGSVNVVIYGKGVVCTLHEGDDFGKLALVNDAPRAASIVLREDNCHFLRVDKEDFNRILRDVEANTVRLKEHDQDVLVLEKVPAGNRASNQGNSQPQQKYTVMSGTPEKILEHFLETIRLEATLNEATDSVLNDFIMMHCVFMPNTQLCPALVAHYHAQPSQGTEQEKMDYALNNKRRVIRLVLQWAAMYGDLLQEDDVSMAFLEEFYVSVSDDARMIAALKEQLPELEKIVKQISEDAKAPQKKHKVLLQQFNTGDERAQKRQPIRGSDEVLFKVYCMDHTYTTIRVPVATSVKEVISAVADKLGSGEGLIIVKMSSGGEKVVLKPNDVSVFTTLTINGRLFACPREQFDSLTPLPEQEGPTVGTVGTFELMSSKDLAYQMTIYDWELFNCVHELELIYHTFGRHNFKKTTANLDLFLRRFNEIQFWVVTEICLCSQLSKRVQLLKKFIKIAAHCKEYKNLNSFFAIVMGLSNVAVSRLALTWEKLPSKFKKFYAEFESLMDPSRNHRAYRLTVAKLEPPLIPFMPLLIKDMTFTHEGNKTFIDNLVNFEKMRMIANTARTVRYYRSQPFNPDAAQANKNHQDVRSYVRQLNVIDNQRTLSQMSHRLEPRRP
# Where “and” joins values, the source holds several entries; their conditions need not be identical. Equal values may be shown once. This is a selection; strong and weak results do not stand in their true shares. Calls of active or inactive are those of the source. The call rests on the fitted dose curve; in most records, active means well fitted activation curve with a large enough effect; inconclusive means small, poorly fitted or top-dose-only effect, or another doubt; inactive means no such curve, though single readings can be large or run the other way.
# Biological target: Rap guanine nucleotide exchange factor 4 (Homo sapiens) (UniProt Q8WZA2)
# Test: Validation qHTS for agonist of cAMP-regulated guanine nucleotide exchange factor 4 (EPAC2);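 further: exchange makes BODIPY-GDP fluorescence drop when released from Rap1B; series mostly up to about 150 µM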
# Conditions: EPAC2 Rap1B BODIPY-GDP exchange, fluorescence; hits give high values
# From the text: Principle Investigator: Xiaodong Cheng Ph.D.
# The University of Texas Medical Branch, […], TX
# In multi-cellular eukaryotic organisms, the effects of cAMP are transduced by two ubiquitously-expressed intracellular cAMP receptors, the classic protein kinase A/cAMP-dependent protein kinase (PKA/cAPK) and the more recently discovered exchange protein directly activated by cAMP/cAMP-regulated guanine nucleotide exchange factor (EPAC/cAMP-GEF). Both PKA and EPAC are ubiquitously expressed in all tissues, and an increase in intracellular cAMP levels will lead to the activation of both PKA and EPAC. Therefore, careful dissections of the individual role and relative contribution of EPAC and PKA within the overall cAMP signaling in various model systems are critical for further elucidating the mechanism of cAMP signaling. To date no EPAC-specific antagonists and agonist, as well as isoform-specific agonists have been reported, and developing EPAC-specific pharmacological probes to determine the physiological functions that EPAC play in the overall cAMP-mediated signaling remains a major challenge within the research field. […]
# This qHTS will be used to screen the Molecular Libraries Small Molecule Repository (MLSMR) as a concentration-titration series using the NCGC unique quantitative screening (qHTS) platform to find activators for EPAC1. […] Activators are identified by monitoring the change in fluorescence signal as the exchanged free BODIPY-GDP has a reduced fluorescence compared to Rap1-bound BODIPY-GDP. […]
# Briefly, three uL of reagents (100 nM EPAC2, 250 nM RAP1B-BODIPY-GDP, 50 uM GDP) were dispensed into a 1536-well Greiner black solid-bottom medium binding assay plate. […] The assay plates were read at 5 minute intervals for 30 minutes in the ViewLux plate reader using 480nm excitation and 540nm emission filters. […]
# On the % scale 0 is the no-effect control and ±100 the full control effect.
row,SMILES,activation
1,CN(CCCl)CCCl,inactive: -7.47% and inactive: -3.03%
2,CCC(=O)N(c1ccccc1)C1(COC)CCN(CCc2cccs2)CC1,inactive: 4.74%
3,CCC(=O)N(c1ccccc1)C1(COC)CCN(CCn2nnn(CC)c2=O)CC1,inactive: -3%
